Experimental data as given in patent US10065970B2 (Genentech, Inc., priority 2015, dated 2018).

By UniProt entry, the sequences of proteins in these tests, tags left out.
UniProt P42336, whole entry: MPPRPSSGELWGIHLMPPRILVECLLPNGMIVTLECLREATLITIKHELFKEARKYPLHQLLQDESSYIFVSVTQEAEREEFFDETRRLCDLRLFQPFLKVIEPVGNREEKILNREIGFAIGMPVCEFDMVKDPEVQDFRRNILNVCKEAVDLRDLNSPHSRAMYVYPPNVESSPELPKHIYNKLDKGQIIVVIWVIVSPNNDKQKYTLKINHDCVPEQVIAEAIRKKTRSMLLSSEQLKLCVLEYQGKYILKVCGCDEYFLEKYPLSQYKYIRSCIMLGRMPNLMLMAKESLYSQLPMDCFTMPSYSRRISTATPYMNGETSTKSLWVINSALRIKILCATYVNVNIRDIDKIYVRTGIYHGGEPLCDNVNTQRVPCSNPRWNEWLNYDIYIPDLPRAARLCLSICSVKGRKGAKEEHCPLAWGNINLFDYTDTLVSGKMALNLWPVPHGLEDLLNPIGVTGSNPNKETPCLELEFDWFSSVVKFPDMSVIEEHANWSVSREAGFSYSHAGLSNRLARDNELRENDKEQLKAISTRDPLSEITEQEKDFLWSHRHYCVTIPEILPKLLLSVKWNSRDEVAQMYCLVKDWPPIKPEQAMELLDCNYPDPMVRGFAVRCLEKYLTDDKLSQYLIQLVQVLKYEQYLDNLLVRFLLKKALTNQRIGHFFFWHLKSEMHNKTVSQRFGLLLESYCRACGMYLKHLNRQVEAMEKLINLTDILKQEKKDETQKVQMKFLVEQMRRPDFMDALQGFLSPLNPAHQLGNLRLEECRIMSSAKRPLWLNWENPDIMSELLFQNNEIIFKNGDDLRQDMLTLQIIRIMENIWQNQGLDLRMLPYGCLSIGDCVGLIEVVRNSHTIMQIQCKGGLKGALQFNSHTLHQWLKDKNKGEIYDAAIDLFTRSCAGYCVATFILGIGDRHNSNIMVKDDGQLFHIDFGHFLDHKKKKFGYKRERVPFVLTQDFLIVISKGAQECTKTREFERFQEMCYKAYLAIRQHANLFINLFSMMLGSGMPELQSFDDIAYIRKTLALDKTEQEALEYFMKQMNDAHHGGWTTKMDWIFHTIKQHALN

Target: PI3Kα (alpha) (Homo sapiens (Human), UniProt P42336)
Assay: p110α (alpha) PI3K Binding Assay (ADP-Glo lipid kinase reaction)
Format: biochemical
Conditions: read-out: PI3Kα-(alpha) ATP (Ki) micromolar
Procedure: The ability of a compound of the invention to act as an inhibitor of PI3Kα was determined using the methods of Example 901.
PI3K Binding assays are intended for determining the biochemical potency of small molecule PI3K inhibitors. The PI3K lipid kinase reaction is performed in the presence of PIP2:3PS lipid substrate (Promega #V1792) and ATP. Following the termination if the kinase reaction, turnover of ATP to ADP by the phosphorylation of the lipid substrate is detected using the Promega ADP-Glo™ (Promega #V1792) assay. Reactions are carried out using the following conditions:
After 120 minutes of reaction time, the kinase reaction is terminated. Any ATP remaining after the reaction is depleted, leaving only ADP. Then the Kinase Detection Reagent is added to convert ADP to ATP, which is used in a coupled luciferin/luciferase reaction. The luminescent output is measured and is correlated with kinase activity.
All reactions are carried out at room temperature. A 3 μl mixture (1:1) of enzyme/lipid substrate solution is added to a 384 well white assay plate (Perkin Elmer #6007299) containing 50 nl of test compound or DMSO only for untreated controls. The reaction is started by the addition of 2 μl ATP/MgCl2. The kinase reaction buffer contains 50 mM HEPES, 50 mM NaCl, 3 mM MgCl2, 0.01% BSA, 1% DMSO, and enzyme and substrate concentrations as indicated in the above table. The reaction is stopped by the addition of 10 μL ADP-Glo reagent. Plates are read in a Perkin Elmer Envision system using luminescence mode. 10 point dose response curves are generated for each test compound. Ki values for each compound are determined using the Morrison Equation.

[1] = PI3K alpha 0.2 nM, ATP 40 μM, PIP2:3PS 50 μM, 120 min, room temperature, Ki by Morrison Equation

| Ki [1] [nM] | Structure (SMILES) | Ki [nM] |
| --- | --- | --- |
| 0.061 | CC[C@H](C(N)=O)n1cc(-c2cc3c4c(c2)nc(-c2ccc5nc(N)sc5n2)n4CCCCO3)cn1 (single isomer, unassigned) [Example 299] | – |
| 7.62 | NC(=O)[C@H](Oc1cc2c3c(c1)nc(-c1cc(F)c4nc(N)sc4c1)n3CCO2)C1CC1 (single isomer, unassigned) [Example 291] | – |
| 0.273 | NC(=O)[C@@H](Oc1cc2c3c(c1)nc(-c1ccc4oc(N)nc4c1)n3CCCO2)C1CC1 (single isomer, unassigned) [Example 260] | – |
| – | NC(=O)[C@@H](Nc1cc2c3c(c1)nc(-c1ncco1)n3CCCO2)C1CC1 [Example 142, (S)-2-Cyclopropyl-2-((1-(oxazol-2-yl)-8,9-dihydro-7H-6-oxa-2,9a-diazabenzo[cd]azulen-4-yl)amino)acetamide] | 103 |

Where two headings read alike, the source gives them in different places.
